# Source: patent US7932290B2, “Method for the treatment of metabolic disorders” (Wellstat Biologics Corporation, priority 2003, dated 2011)
# Amino acid sequences for entries named in this document (tags omitted). Residues count along the entry.
# UniProt P37238, 238-503: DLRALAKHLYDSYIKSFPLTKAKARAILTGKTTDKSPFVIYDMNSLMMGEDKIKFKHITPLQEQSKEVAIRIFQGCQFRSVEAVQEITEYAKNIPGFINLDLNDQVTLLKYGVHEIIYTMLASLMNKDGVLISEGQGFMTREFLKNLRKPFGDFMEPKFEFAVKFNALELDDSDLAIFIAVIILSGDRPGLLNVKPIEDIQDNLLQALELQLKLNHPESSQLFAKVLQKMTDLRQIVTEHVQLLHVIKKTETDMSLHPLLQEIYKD
# How the values were obtained:
# [1] = target: T1, Mouse PPARγ LBD fusion protein (Mus musculus, UniProt P37238); assay: Transcription activation potential, GAL4 luciferase reporter in Hepa1.6 cells; assay type: cell-based; conditions: 3 μM
# Protocol: Cells were seeded in 24 well plates the day prior to transfection at 5×10^4−2×10^5 cells/well, depending upon cell type. Cells were transfected using Lipofectamine 2000 reagent from Invitrogen. A total of 0.8 μg DNA/well was added to 50 μL of Optimem Reduced Serum media (serum free; Gibco). Lipofectamine 2000 was added (2.5 μL/well) to another tube containing 50 μL of Optimem media. Plasmid DNA was added at a ratio of 4:3 (reporter:activator); where appropriate, salmon sperm DNA was substituted for activator expressing plasmid. […] DNA constructs containing the mouse PPARα or PPARγ LBD fused to the GAL4 DNA binding domain were also used. The two solutions were incubated at room temperature for 5 min, and then combined. The combined solution was incubated at room temperature for approximately 30 min. Cells were washed once with PBS, and 100 μL of transfection mix added to each well. Plates were incubated at 37° C. in a 5% CO2 incubator for 4.5 hr, followed by aspiration of the transfection mix, with plates refed using EMEM complete media (supplemented with 10% FBS, 1× Glutamine). […] Approximately 10 μL of lysate was added to 100 μL of firefly luciferase substrate, mixed by pipetting, and analyzed on a luminometer for 10 s using the integration function (relative luciferase units/RLU) or on a Microbeta Trilux (luciferase counts per second/LCPS). […]
# [2] = target: T1, Mouse PPARγ LBD fusion protein; assay: Transcription activation potential, GAL4 luciferase reporter in C3A cells; assay type: cell-based
# Protocol: Cells were seeded in 24 well plates the day prior to transfection at 5×10^4−2×10^5 cells/well, depending upon cell type. Cells were transfected using Lipofectamine 2000 reagent from Invitrogen. A total of 0.8 μg DNA/well was added to 50 μL of Optimem Reduced Serum media (serum free; Gibco). Lipofectamine 2000 was added (2.5 μL/well) to another tube containing 50 μL of Optimem media. Plasmid DNA was added at a ratio of 4:3 (reporter:activator); where appropriate, salmon sperm DNA was substituted for activator expressing plasmid. […] DNA constructs containing the mouse PPARα or PPARγ LBD fused to the GAL4 DNA binding domain were also used. The two solutions were incubated at room temperature for 5 min, and then combined. The combined solution was incubated at room temperature for approximately 30 min. Cells were washed once with PBS, and 100 μL of transfection mix added to each well. Plates were incubated at 37° C. in a 5% CO2 incubator for 4.5 hr, followed by aspiration of the transfection mix, with plates refed using EMEM complete media (supplemented with 10% FBS, 1× Glutamine). 24 hr post-transfection, plates were treated with the appropriate compounds in EMEM complete media, followed by washing once with PBS and addition of 100 μL 1× reporter lysis buffer/well (Promega) 24 hr after treatment. Plates went through one freeze/thaw cycle prior to analysis. Approximately 10 μL of lysate was added to 100 μL of firefly luciferase substrate, mixed by pipetting, and analyzed on a luminometer for 10 s using the integration function (relative luciferase units/RLU) or on a Microbeta Trilux (luciferase counts per second/LCPS). Each treatment was performed in triplicate, and in multiple, separate experiments.
structure (smiles),measurement,setting,value
"CN(CCOc1ccc(CC2SC(=O)NC2=O)cc1)c1ccccn1 (stereo not shown) [Rosiglitazone, rosiglitazone, reference compound]",transcription activation potential (luciferase) ± standard deviation,[1],1817 ± 331 RLU
same,transcription activation potential (luciferase) ± standard deviation,"[2]; 3 μM, Table 21b",17264 ± 8260 RLU
same,transcription activation potential (luciferase) ± standard deviation,"[2]; Table 20b line 1 μM, rosiglitazone at one-fifth the listed concentration (0.2 μM)",196.8 ± 138.9 LCPS
same,transcription activation potential (luciferase) ± standard deviation,"[2]; Table 20b line 3 μM, rosiglitazone at one-fifth the listed concentration",60.1 ± 29.14 LCPS
same,transcription activation potential (luciferase) ± standard deviation,"[2]; Table 20b line 10 μM, rosiglitazone at one-fifth the listed concentration",432.7 ± 137.4 LCPS
same,transcription activation potential (luciferase) ± standard deviation,"[2]; Table 20b line 30 μM, rosiglitazone at one-fifth the listed concentration",378 ± 274.5 LCPS
same,transcription activation potential (luciferase) ± standard deviation,"[2]; Table 20b line 100 μM, rosiglitazone at one-fifth the listed concentration",308.6 ± 110.1 LCPS
